From US20220220491A1
This is a selection: effects in other tests are not listed, and their absence says nothing.

How the values were obtained:
AOX1 promoter [1] = assay: intracellular hPINX1 protein production, Western blot analysis; conditions: SNP 800 nM; intracellular production in P. pastoris
Procedure: In another study performed under scope of the invention, human PINX1 (hPINX1) protein under AOX1 promoter control by adding SNP in 800 nM concentration was produced intracellularly with P. pastoris. According to Western blot analysis result of this study, it was seen that SNP induced hPINX1 protein production.

AOX1 promoter [2] = assay: extracellular recombinant prepromelittin protein production; conditions: SNP as inducer at 200, 400, 600 and 800 nanomoles; sorbitol as carbon source; recombinant P. pastoris cells
Source text: In a study conducted under scope of the invention, to produce recombinant protein, recombinant P. pastoris cells (constructed in our laboratory) carrying “prepromelittin protein” gene of Apis mellifera (honey bee) in its genome and producing extracellularly this protein were used.

AOX1 promoter [3] = assay: heterologous gene expression analysis (FIG. 1); conditions: 800 nM sodium nitroprusside, comparison: methanol 0.5%
Procedure: FIG. 1 is efficiency analysis graphic of heterologous gene expression levels giving comparison of method of invention to control groups of different applications.
A. Growth culture containing methanol in 0.5% in volume
C. Growth culture containing glucose in 1% and 800 nM sodium nitroprusside
E. Growth culture containing glycerol in 1% and 800 nM sodium nitroprusside
G. Growth culture containing sorbitol in 1% and 800 nM sodium nitropusside
The most importantly, with use of SNP, much higher protein production can be achieved in comparison to methanol induction.

sodium nitroprusside was tested, and the “hPINX1 protein production under AOX1 promoter control (Western blot)” value (AOX1 promoter [1]) was “induced hPINX1 protein production”, the “extracellular protein production (prepromelittin of Apis mellifera)” value (AOX1 promoter [2]) was “extracellular protein production was achieved” and the “heterologous gene expression level with SNP induction compared to only methanol induction” value (AOX1 promoter [3]; in the presence of glycerol (1%), p>0.05) was “no significant difference”. The “heterologous gene expression level with SNP induction compared to only methanol induction” value (AOX1 promoter [3]; in the presence of sorbitol (1%)) was “higher gene expression level”.
